The source of these data is US20250313548A1 (Actio Biosciences, Inc., priority 2023, published 2025).

By UniProt entry, the sequences of proteins in these tests, tags left out.
UniProt Q5JUK3, whole entry: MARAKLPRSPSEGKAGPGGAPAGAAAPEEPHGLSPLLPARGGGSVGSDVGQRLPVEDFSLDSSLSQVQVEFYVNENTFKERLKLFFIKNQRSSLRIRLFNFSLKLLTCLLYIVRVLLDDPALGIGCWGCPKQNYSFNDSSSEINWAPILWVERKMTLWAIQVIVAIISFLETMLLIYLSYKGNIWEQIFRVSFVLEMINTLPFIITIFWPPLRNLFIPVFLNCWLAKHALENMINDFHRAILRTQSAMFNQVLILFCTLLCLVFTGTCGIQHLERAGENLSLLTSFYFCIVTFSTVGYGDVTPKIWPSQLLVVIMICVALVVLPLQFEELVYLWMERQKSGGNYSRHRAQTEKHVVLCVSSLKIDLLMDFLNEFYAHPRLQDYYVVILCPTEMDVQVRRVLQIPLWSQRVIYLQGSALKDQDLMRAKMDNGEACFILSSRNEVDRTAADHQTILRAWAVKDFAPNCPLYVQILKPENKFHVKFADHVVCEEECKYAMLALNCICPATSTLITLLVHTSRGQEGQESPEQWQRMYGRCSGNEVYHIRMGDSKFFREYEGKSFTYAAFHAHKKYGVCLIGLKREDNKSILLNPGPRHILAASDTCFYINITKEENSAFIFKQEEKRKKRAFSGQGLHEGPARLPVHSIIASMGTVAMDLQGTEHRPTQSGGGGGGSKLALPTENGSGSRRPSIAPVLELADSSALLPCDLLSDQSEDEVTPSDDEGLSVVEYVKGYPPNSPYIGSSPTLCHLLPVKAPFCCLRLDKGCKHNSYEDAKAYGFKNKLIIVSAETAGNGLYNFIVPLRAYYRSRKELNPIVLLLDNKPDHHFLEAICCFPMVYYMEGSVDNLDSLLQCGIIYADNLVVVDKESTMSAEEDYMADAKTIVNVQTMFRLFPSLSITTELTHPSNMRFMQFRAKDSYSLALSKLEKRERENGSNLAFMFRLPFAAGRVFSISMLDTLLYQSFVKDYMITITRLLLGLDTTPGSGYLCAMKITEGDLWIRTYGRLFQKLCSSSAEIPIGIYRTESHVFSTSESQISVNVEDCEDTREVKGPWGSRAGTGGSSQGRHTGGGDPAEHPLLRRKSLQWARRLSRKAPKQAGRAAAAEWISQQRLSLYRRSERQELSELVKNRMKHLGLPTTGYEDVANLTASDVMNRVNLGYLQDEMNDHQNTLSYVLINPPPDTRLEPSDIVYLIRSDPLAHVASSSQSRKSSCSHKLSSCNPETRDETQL

This test has as its target human, KCNT1 (Homo sapiens (Human), UniProt Q5JUK3). The experiment in a line: FLIPR Tl/K Flux Assay. As to conditions: HEK293 cells stably expressing human KCNT1; Tl+ flux stimulated with EC80 of agonist Loxapine.

In turn, `Cn1nc(C(F)(F)F)cc1C(=O)N[C@H]1CCCn2nc(-c3ccnc(C(F)(F)F)c3)cc21` yielded an IC50 of less than 250 nM.
Take `CC(O)c1cc(-c2cc3n(n2)CCCC3NC(=O)c2cc(C(F)(F)F)nn2C)ccn1` (centres unmarked): the IC50 was more than 1000 nM.
